This passage reports IC50 results from US20040018971A1.

Holding throughout (details): remark: other sources report otherwise
In experiment [1] the target is HLA-A*0201 (human). Kind of experiment: competition with 125I probe peptide for purified HLA.
The target of the next experiment is HLA-B*5101 (human). Kind of experiment: competition vs 125I-labelled probe peptide, purified HLA, gel filtration.
In the next experiment the target is HLA-A*0301 (human). Kind of experiment: inhibition of 125I probe peptide binding to purified HLA.
A further experiment addresses HLA-A*3301 (human). The experiment is described as above.
The target in experiment [2] is HLA-A*0202 (human). Kind of experiment: competition for purified HLA vs 125I-labelled probe peptide, gel filtration.
The target of experiment [3] is HLA-A*0201 (human). Described as above.
Experiment [4] addresses HLA-A*0202 (human). The experiment in a line: competition with 125I probe peptide for purified HLA.

In the experiment with HLA-A*0201 (human) [1], CLTSTVQLV [Her2/neu.789 …] came in with a half-maximal inhibitory concentration (IC50) of 208 nM. This lies in the sub-micromolar range. As for PPSPREGPLPI [Her2/neu.1149.I11], in the experiment with HLA-B*5101 (human), the IC50 came out at 423 nM.

Regarding VVFGILIKRR [Her2/neu.669 (AA 10)], the 50% inhibitory concentration (IC50) amounted to 3670 nM with HLA-A*0301 (human) and 193 nM with HLA-A*3301 (human). HLYQGCQVV [Her2/neu.48]: the half-maximal inhibitory concentration (IC50) with HLA-A*0202 (human) [2] amounted to 307 nM. The molecule CLTSTVQLV [Her2/neu.789] registered an IC50 with HLA-A*0201 (human) [3] of 208 nM.

On to HLYQGCQVV [Her2/neu.48 …], for which, in the experiment with HLA-A*0202 (human) [4], the IC50 came to 307 nM.
